Data on one compound can be found in ChEMBL document CHEMBL5096169, “Recent progress in agents targeting polo-like kinases: Promising therapeutic strategies” (Eur J Med Chem, 2021).

For assay [1], the species on record is Homo sapiens. Nature of the assay: Selectivity index, ratio of IC50 for inhibition of recombinant C-terminal 6His-tagged human PLK2-PBD to IC50 for inhibition of human PLK1-PBD.
Assay [2] is filed under the species Homo sapiens. Briefly: Selectivity index, ratio of IC50 for inhibition of recombinant N-terminal MBP-tagged human PLK3-PBD to IC50 for inhibition of human PLK1-PBD.

In the case of `C[C@@]12CN(Cc3cccc(C#N)c3)C[C@@](C)(C1)c1c(-c3ccc4ccccc4c3)ccc(=O)n1C2`, the Ratio IC50 in assay [1] and in assay [2] was 5 in each case.
